The text below walks through data of patent US6362163B1, “Parathyroid hormone-related peptide analogs” (The General Hospital Corporation, priority 1996, dated 2002).

Protein sequences, listed by entry. Tags and fused reporters are not part of them. Residues count along the entry.
UniProt P49190, 25-550: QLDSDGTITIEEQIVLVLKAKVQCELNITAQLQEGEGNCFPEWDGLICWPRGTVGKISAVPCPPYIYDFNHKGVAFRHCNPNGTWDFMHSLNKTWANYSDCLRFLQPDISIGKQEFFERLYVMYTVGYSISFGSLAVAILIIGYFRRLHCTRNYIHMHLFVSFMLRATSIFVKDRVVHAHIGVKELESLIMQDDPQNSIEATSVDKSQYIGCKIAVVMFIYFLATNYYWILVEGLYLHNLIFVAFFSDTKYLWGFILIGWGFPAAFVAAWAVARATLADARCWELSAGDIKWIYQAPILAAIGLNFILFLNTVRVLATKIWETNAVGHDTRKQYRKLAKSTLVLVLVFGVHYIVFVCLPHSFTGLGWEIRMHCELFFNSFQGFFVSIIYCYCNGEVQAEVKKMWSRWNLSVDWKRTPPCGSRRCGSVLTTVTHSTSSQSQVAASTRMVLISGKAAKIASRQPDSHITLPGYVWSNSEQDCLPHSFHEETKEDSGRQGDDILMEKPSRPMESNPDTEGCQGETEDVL

The EC50 is the concentration giving half of the maximal effect.

For assay [1], the target named is T1, PTH-2 receptor (Homo sapiens, UniProt P49190).
T1 construct: expressed in transfected cells; host or cells: COS-7 cells, transient transfection, vector pcDNAI/Amp
Nature of the assay: Competition radioligand binding, COS-7 cells transfected with human PTH-2 receptor. The following applies: read-out: Binding IC50, PTH-2 receptor, radioligand 125I-[Nle8,21,Y34]rPTH-(1-34)NH2, 2 hours at room temperature, mean ± s.e.m. Here is the method: (§1) The cDNAs encoding the human PTH/PTHrP receptor (Schipani, E. et al., Endocrinology 132:2157-2165 (1993)) and the human PTH-2 receptor (Usdin, T. et al., J. Biol. Chem. 270:15455-15458 (1995)) were carried on the expression vectors pcDNA-1 and pcDNAI/Amp (InVitrogen, San Diego, Calif.), respectively. COS-7 cells were cultured and transfected as described previously (Lee, C. et al., Mol. Endocrinol. 9:1269-1278 (1995)). Cells were transfected in 24-well plates using plasmid DNA (200 ng/well) purified by cesium chloride/ethidium bromide gradient centrifugation. Ligand binding and cAMP accumulation assays were performed three days after transfection, by which time the cell density reached 500,000±100,000 cells/well.
(§2) Binding reactions were performed as described previously. Id. Each well (final volume: […]) contained 26 fmole of ^125I-[Nle^8,21,Tyr^34]rPTH(1-34)NH2 (100,000 CPM) and various amounts (0.4-300 pmole) of an unlabeled competitor ligand, both diluted in binding buffer (50 mM Tris-HCl, pH 7.7, 100 mM NaCl, 5 mM KCl, 2 mM CaCl, 5% heat-inactivated horse serum, 0.5% heat-inactivated fetal bovine serum). Incubations were at room temperature for 2 hours, except for experiments involving Scatchard analysis, which were performed at 4° C. for 6 hours. At the end of the binding reaction, the cells were rinsed 3 times with 0.5 ml of binding buffer, lysed with 0.5 ml of 5M NaOH, and the entire lysate was counted. Nonspecific binding of tracer (NSB), determined in wells containing 1 μM of [NleTyr^8,21,Tyr^34]rPTH-(1-34)NH2, was ˜1% of total counts added. Maximum specific binding (B0) was calculated as the total radioactivity bound to cells in the absence of unlabeled PTH ligand, minus NSB. […] For Scatchard analyses, homologous competition binding studies were performed that used ^125I-[-NleTyr^8,21,Tyr^34]rPTH-(1-34)NH2 (26 fmole/well) and varying amounts (1.2-300 pmol) of the same unlabeled ligand. Estimates of the number of receptors/cell derived from these studies assumed a single class of binding sites and a transfection efficiency of 20% (Abou-Samra, A. B. et al., Proc. Natl. Acad. Sci (USA) 89:2732-2736 (1992)).

A further assay concerns the target T2, PTH/PTHrP receptor (Homo sapiens, UniProt Q03431).
T2 construct: expressed in transfected cells; host or cells: COS-7 cells, transient transfection, vector pcDNA-1
T2 sequence (Q03431 27-593): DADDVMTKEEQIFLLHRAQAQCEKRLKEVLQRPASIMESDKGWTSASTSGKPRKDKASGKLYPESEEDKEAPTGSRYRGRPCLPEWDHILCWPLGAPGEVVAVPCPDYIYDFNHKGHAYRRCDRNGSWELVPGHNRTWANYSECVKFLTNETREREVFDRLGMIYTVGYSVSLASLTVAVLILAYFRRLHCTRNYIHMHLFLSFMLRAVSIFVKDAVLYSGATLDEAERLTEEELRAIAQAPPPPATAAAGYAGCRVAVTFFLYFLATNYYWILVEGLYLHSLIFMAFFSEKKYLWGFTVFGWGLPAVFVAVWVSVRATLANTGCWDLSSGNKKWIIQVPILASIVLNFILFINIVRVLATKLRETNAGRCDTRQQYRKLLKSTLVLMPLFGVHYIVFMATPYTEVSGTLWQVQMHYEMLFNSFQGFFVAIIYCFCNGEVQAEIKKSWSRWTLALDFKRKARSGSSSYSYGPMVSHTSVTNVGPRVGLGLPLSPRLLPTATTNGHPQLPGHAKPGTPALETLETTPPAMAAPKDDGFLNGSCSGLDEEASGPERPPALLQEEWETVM
Nature of the assay: Competition radioligand binding, COS-7 cells transfected with human PTH/PTHrP receptor. The following applies: read-out: Binding IC50, PTH/PTHrP receptor, radioligand 125I-[Nle8,21,Y34]rPTH-(1-34)NH2, 2 hours at room temperature, mean ± s.e.m. The protocol: as §1, §2

In assay [2] the target is T1, PTH-2 receptor. Nature of the assay: Ligand-induced intracellular cAMP accumulation, COS-7 cells expressing human PTH-2 receptor. The class given is cell-based. The following applies: read-out: cAMP accumulation EC50, PTH-2 receptor, 1h at room temperature, IBMX, mean ± s.e.m. The protocol:
as §1
Transfected COS-7 cells were rinsed with […] of binding buffer. 200 μl of IBMX buffer (DMEM containing 2 mM IBMX, 1 mg/ml bovine serum albumin, 35 mM Hepes-NaOH, pH 7.4) and […] of binding buffer or binding buffer containing various amounts of a PTH or PTHrP analog were then added. The plates were incubated for 60 minutes at room temperature. The buffer was then withdrawn and the cells lysed by placing the plates on powdered dry ice and adding 0.5 ml of 50 mM HCl. The acid lysate was diluted 1/30 in dH2O, and an aliquot (5-50 μl) analyzed for cAMP content by radioimmunoassay. […] For antagonist studies, the inhibitor peptide [Leu^11,D-Trp^12]hPTHrP(7-34)NH2or [Trp^23,Tyr^36]hPTHrP-(1-36)N2H was applied to COS-7 cells in 100 μl of binding buffer two minutes prior to the addition of IBMX buffer that contained a near-maximal stimulatory dose (1.5 nM) of [Tyr^34]hPTH-(1-34)NH2 agonist peptide. The cells were then incubated for 30 minutes at room temperature, and the resulting intracellular cAMP was measured by RIA. Data were analyzed using the AssayZap software (Elsevier Science Publishers BV, Cambridge, United Kingdom).
A general note: Cyclic AMP is a second messenger, typically raised through Gs and lowered through Gi signalling.

A further assay has as its target T3, human PTH/PTHrP receptor (human, UniProt Q03431 27-593).
T3 construct: whole, on cells; Transiently expressed on COS-7 cells
T3 sequence (looked up): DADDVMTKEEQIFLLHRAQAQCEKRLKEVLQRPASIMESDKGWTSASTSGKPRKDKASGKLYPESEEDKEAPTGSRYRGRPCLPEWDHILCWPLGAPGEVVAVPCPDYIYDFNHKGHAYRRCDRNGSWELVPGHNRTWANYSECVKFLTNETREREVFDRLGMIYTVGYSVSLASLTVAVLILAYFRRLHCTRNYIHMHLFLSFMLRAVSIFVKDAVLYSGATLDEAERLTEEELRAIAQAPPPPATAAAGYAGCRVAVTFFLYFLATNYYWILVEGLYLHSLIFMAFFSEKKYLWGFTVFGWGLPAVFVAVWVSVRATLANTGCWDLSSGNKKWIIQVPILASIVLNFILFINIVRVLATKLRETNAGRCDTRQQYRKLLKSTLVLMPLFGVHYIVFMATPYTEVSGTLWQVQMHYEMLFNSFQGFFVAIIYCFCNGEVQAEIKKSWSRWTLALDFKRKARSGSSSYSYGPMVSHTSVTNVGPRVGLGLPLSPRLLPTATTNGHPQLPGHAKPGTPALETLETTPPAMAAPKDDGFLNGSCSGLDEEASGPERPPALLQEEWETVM
Nature of the assay: radioligand competition (tracer 125I-[Nle8,21,Tyr34]rPTH-(1-34)NH2) on transfected COS-7 cells, RT 2 h. The protocol: (§3) Assays were performed for 2 hours at room temperature. Data are the mean (± s.e.m.) of IC$50$ values obtained from the number of experiments indicated (n).
(§4) Binding reactions were performed as described previously. Id. […] Incubations were at room temperature for 2 hours, except for experiments involving Scatchard analysis, which were performed at 4° C. for 6 hours. At the end of the binding reaction, the cells were rinsed 3 times with 0.5 ml of binding buffer, lysed with 0.5 ml of 5M NaOH, and the entire lysate was counted. […] Estimates of the number of receptors/cell derived from these studies assumed a single class of binding sites and a transfection efficiency of 20% (Abou-Samra, A. B. et al., *Proc. Natl. Acad. Sci* (*USA*) 89:2732–2736 (1992)).

The next assay addresses T4, human PTH-2 receptor (human, UniProt P49190 25-550).
T4 construct: whole, on cells; Transiently expressed on COS-7 cells
Described as above. Here is the method: as §3, §4

In the case of “hpTHrP-(1-18)/[Y34]hpTH-(19-34)NH2 [Hybrid-5]”, the IC50 on PTH-2 receptor [1] was 500 ± 62 nM; at PTH/PTHrP receptor, 4.97 µM. Moreover, the EC50 at PTH-2 receptor [2] was > 1000 nM.

B1: [I5, W23, Y36]hPTHrP-(1-36)NH2 (peptide)
peptide: AVSEIQLLHDKGKSIQDLRRRFWLHHLIAEIHTAEY
modifications: C-terminal tyrosine-amide
notes: also called [Ile^5, Trp^23]PTHrP-(1-36); [Ile^5,Trp^32]PTHrP-(1-36) [sic]
As for B1, the IC50 in the assay with human PTH/PTHrP receptor was found to be 16 nM.

AVSEIQLLHDKGKSIQDLRRRFFLHHLIAEIHTAEY (C-terminal tyrosine-amide, also called [Ile^5]PTHrP-(1-36)) [[I5, Y36]hPTHrP-(1-36)NH2] came in with an IC50 with human PTH-2 receptor of 695 nM.

B2: [Trp^23,Tyr^36]hPTHrP-(1-36)NH2 (peptide)
peptide: AVSEHQLLHDKGKSIQDLRRRFWLHHLIAEIHTAEY
modifications: C-terminal tyrosine-amide
notes: also called [W23, Y36]hPTHrP-(1-36)NH2; [Trp^23]PTHrP-(1-36)
B2: in the assay with human PTH/PTHrP receptor, the IC50 was 47 nM. Take LNSMERVEWLRKKLQDVHNY (C-terminal tyrosine-amide) [[Y34]hPTH-(15-34)NH2]: the IC50 in the assay with human PTH-2 receptor was 624 nM.

B3: Hybrid-1 hPTHrP-(1-14)/[Y34]hPTH-(15-34)NH2 (peptide)
peptide: AVSEHQLLHDKGKSLNSMERVEWLRKKLQDVHNY
modifications: C-terminal tyrosine-amide
notes: Synthetic PTH/PTHrP hybrid ligand; also called PTHrP-(1-14)/PTH-(15-34)
With B3, the results for the IC50 with human PTH-2 receptor and with human PTH/PTHrP receptor were 606 nM and 7900 nM, respectively. Consider IQDLRRRFWLHHLIAEIHTAEY (C-terminal tyrosine-amide) [[W23, Y36]hPTHrP-(15-36)NH2], for which, in the assay with human PTH-2 receptor, the IC50 is 370 nM. IQDLRRREWLHHLIAEIHTAEY (C-terminal tyrosine-amide) [[E22, W23, Y36]hPTHrP-(15-36)NH2] gave an IC50 with human PTH-2 receptor of 137 nM. In the assay with human PTH-2 receptor, IQDLRRRFFLHHLIAEIHTAEY (C-terminal tyrosine-amide) [[Y36]hPTHrP-(15-36)NH2] came in with an IC50 of 4970 nM.

B4: Hybrid-4 hPTHrP-(1-21)/[Y34]hPTH-(22-34)NH2 (peptide)
peptide: AVSEHQLLHDKGKSIQDLRRREWLRKKLQDVHNY
modifications: C-terminal tyrosine-amide
notes: Synthetic PTH/PTHrP hybrid ligand; also called PTHrP-(1-21)/PTH-(22-34)
For the molecule B4, the IC50 came out at 11 nM in the assay with human PTH-2 receptor and 19 nM in the assay with human PTH/PTHrP receptor.

B5: Hybrid-3 hPTHrP-(1-23)/[Y34]hPTH-(24-34)NH2 (peptide)
peptide: AVSEHQLLHDKGKSIQDLRRRFFLRKKLQDVHNY
modifications: C-terminal tyrosine-amide
notes: Synthetic PTH/PTHrP hybrid ligand; also called PTHrP-(1-23)/PTH-(24-34)
In the assay with human PTH-2 receptor, B5 came in with an IC50 of 6050 nM.

B6: Hybrid-5 hPTHrP-(1-18)/[Y34]hPTH-(19-34)NH2 (peptide)
peptide: AVSEHQLLHDKGKSIQDLERVEWLRKKLQDVHNY
modifications: C-terminal tyrosine-amide; radioiodinated in the direct binding test of paragraph 27
notes: Synthetic PTH/PTHrP hybrid ligand; also called radioiodinated hybrid-5 peptide
For B6, the IC50 with human PTH/PTHrP receptor came out at 4970 nM.
